{"source": "patent US20140274800A1", "about": "“TRANSCRIPTION FACTOR DECOYS FOR THE TREATMENT AND PREVENTION OF INFECTIONS CAUSED BY BACTERIA INCLUDING CLOSTRIDIUM DIFFICILE” (PROCARTA BIOSYSTEMS LTD., priority 2013, published 2014)", "origin": "cited, not measured here", "conditions": "in mice; cited from earlier work", "data": [{"smiles": "Cc1cc(N)c2ccccc2[n+]1CCCCCCCCCC[n+]1c(C)cc(N)c2ccccc21", "note": "[dequalinium]", "values": [{"measurement": "MTD", "result": 15, "unit": "mg/kg"}]}]}
